Reference: PubChem BioAssay (NCI)
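1) Cells in 96-well plates. 2) Compound, 48 h, 5 concentrations. 3) Linear interpolation between surrounding doses. 4) Unreached endpoint = highest concentration. GI50 is the concentration that inhibits growth by half. TGI: concentration producing complete growth inhibition.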

Experiments:
Test in all cases: DTP human tumour cell line panel, 48 h
NCI-H23 lung = system: NCI-H23 lung
A549 NSCLC = system: A549 NSCLC
EKVX NSCLC = system: EKVX NSCLC
M14 melanoma = system: M14 melanoma
BT-549 breast = system: BT-549 breast
SN12C renal = system: SN12C renal
HCT-116 colon = system: HCT-116 colon
MCF7 breast = system: MCF7 breast
OVCAR-8 ovarian = system: OVCAR-8 ovarian
HOP-62 NSCLC = system: HOP-62 NSCLC
SF-268 CNS = system: SF-268 CNS
UACC-257 melanoma = system: UACC-257 melanoma
HL-60(TB) leukemia = system: HL-60(TB) leukemia
SK-OV-3 ovarian = system: SK-OV-3 ovarian
MDA-MB-435 = system: MDA-MB-435
T-47D breast = system: T-47D breast
RXF 393 renal = system: RXF 393 renal
PC-3 prostate = system: PC-3 prostate
SK-MEL-28 melanoma = system: SK-MEL-28 melanoma
HT29 colon = system: HT29 colon
SW-620 colon = system: SW-620 colon
DU-145 prostate = system: DU-145 prostate
ACHN renal = system: ACHN renal
OVCAR-5 ovarian = system: OVCAR-5 ovarian
HOP-92 NSCLC = system: HOP-92 NSCLC
SNB-19 CNS = system: SNB-19 CNS
TK-10 renal = system: TK-10 renal
SK-MEL-2 melanoma = system: SK-MEL-2 melanoma
A498 renal = system: A498 renal
HS 578T breast = system: HS 578T breast
786-0 renal = system: 786-0 renal
KM12 colon = system: KM12 colon
U251 CNS = system: U251 CNS
HCC-2998 colon = system: HCC-2998 colon
NCI/ADR-RES ovarian = system: NCI/ADR-RES ovarian
IGROV1 ovarian = system: IGROV1 ovarian
UO-31 renal = system: UO-31 renal
NCI-H460 lung = system: NCI-H460 lung
OVCAR-3 ovarian = system: OVCAR-3 ovarian
MDA-MB-231 breast = system: MDA-MB-231 breast
MDA-N = system: MDA-N
NCI-H522 lung = system: NCI-H522 lung
LOX IMVI melanoma = system: LOX IMVI melanoma
SNB-75 CNS = system: SNB-75 CNS
CCRF-CEM leukemia = system: CCRF-CEM leukemia
MALME-3M melanoma = system: MALME-3M melanoma
OVCAR-4 ovarian = system: OVCAR-4 ovarian
UACC-62 melanoma = system: UACC-62 melanoma
SF-295 CNS = system: SF-295 CNS
CAKI-1 renal = system: CAKI-1 renal
HCT-15 colon = system: HCT-15 colon
NCI-H322M lung = system: NCI-H322M lung
SK-MEL-5 melanoma = system: SK-MEL-5 melanoma
NCI-H226 lung = system: NCI-H226 lung
COLO 205 colon = system: COLO 205 colon
SR leukemia = system: SR leukemia
MOLT-4 leukemia = system: MOLT-4 leukemia
SF-539 CNS = system: SF-539 CNS
K-562 leukemia = system: K-562 leukemia

## COc1ccc2c3c1O[C@H]1C4(OC)C=CC5(C6C(=O)N(c7ccccc7)C(=O)C64)C(C2)N(C)CCC315 (some centres undefined)
NCI-H23 lung
  TGI: > 100 µM
A549 NSCLC
  TGI: > 100 µM
EKVX NSCLC
  TGI: > 100 µM
M14 melanoma
  TGI: > 100 µM
BT-549 breast
  TGI: > 100 µM
SN12C renal
  TGI: > 100 µM
HCT-116 colon
  TGI: > 100 µM
MCF7 breast
  TGI: > 100 µM
OVCAR-8 ovarian
  TGI: > 100 µM
HOP-62 NSCLC
  TGI: 85.3 µM
SF-268 CNS
  TGI: > 100 µM
UACC-257 melanoma
  TGI: > 100 µM
HL-60(TB) leukemia
  TGI: > 100 µM
SK-OV-3 ovarian
  TGI: > 100 µM
MDA-MB-435
  TGI: > 100 µM
T-47D breast
  TGI: > 100 µM
RXF 393 renal
  TGI: 38.2 µM
PC-3 prostate
  TGI: > 100 µM
SK-MEL-28 melanoma
  TGI: > 100 µM
HT29 colon
  TGI: > 100 µM
SW-620 colon
  TGI: > 100 µM
DU-145 prostate
  TGI: > 100 µM
ACHN renal
  TGI: > 100 µM
OVCAR-5 ovarian
  TGI: > 100 µM
HOP-92 NSCLC
  TGI: > 100 µM
SNB-19 CNS
  TGI: > 100 µM
TK-10 renal
  TGI: > 100 µM
SK-MEL-2 melanoma
  TGI: > 100 µM
A498 renal
  TGI: > 100 µM
HS 578T breast
  TGI: > 100 µM
786-0 renal
  TGI: > 100 µM
KM12 colon
  TGI: > 100 µM
U251 CNS
  TGI: > 100 µM
HCC-2998 colon
  TGI: > 100 µM
NCI/ADR-RES ovarian
  TGI: > 100 µM
IGROV1 ovarian
  TGI: > 100 µM
UO-31 renal
  TGI: > 100 µM
NCI-H460 lung
  TGI: > 100 µM
OVCAR-3 ovarian
  TGI: > 100 µM
MDA-MB-231 breast
  TGI: > 100 µM
MDA-N
  TGI: > 100 µM
NCI-H522 lung
  TGI: > 100 µM
LOX IMVI melanoma
  TGI: > 100 µM
SNB-75 CNS
  TGI: 36.5 µM
CCRF-CEM leukemia
  TGI: > 100 µM
MALME-3M melanoma
  TGI: > 100 µM
OVCAR-4 ovarian
  TGI: > 100 µM
UACC-62 melanoma
  TGI: > 100 µM
SF-295 CNS
  TGI: > 100 µM
CAKI-1 renal
  TGI: > 100 µM
HCT-15 colon
  TGI: > 100 µM
NCI-H322M lung
  TGI: > 100 µM

## Cc1ccc2c(c1)C(C(Cl)(Cl)Cl)OP(=O)(N(CCCl)CCCl)O2 (centres undefined)
NCI-H23 lung
  GI50: 11.6 µM
  TGI: > 100 µM
SK-MEL-5 melanoma
  GI50: 5.97 µM
  TGI: > 100 µM
A549 NSCLC
  GI50: 6.41 µM
  TGI: > 100 µM
EKVX NSCLC
  GI50: > 100 µM
  TGI: > 100 µM
M14 melanoma
  GI50: 5.26 µM
  TGI: > 100 µM
BT-549 breast
  GI50: 27.5 µM
  TGI: > 100 µM
NCI-H226 lung
  GI50: 26.5 µM
  TGI: > 100 µM
SN12C renal
  GI50: 27.8 µM
  TGI: > 100 µM
HCT-116 colon
  GI50: 8.68 µM
  TGI: > 100 µM
MCF7 breast
  GI50: > 100 µM
  TGI: > 100 µM
OVCAR-8 ovarian
  GI50: 6.02 µM
  TGI: > 100 µM
HOP-62 NSCLC
  GI50: 16.7 µM
  TGI: > 100 µM
SF-268 CNS
  GI50: 91.8 µM
  TGI: > 100 µM
UACC-257 melanoma
  GI50: 40 µM
  TGI: > 100 µM
HL-60(TB) leukemia
  GI50: 4.72 µM
  TGI: > 100 µM
COLO 205 colon
  GI50: 23.3 µM
  TGI: > 100 µM
SK-OV-3 ovarian
  GI50: 57.6 µM
  TGI: > 100 µM
SR leukemia
  GI50: > 100 µM
  TGI: > 100 µM
MDA-MB-435
  GI50: > 100 µM
  TGI: > 100 µM
T-47D breast
  GI50: 4.58 µM
  TGI: > 100 µM
RXF 393 renal
  GI50: 31.4 µM
  TGI: > 100 µM
PC-3 prostate
  GI50: 4.57 µM
  TGI: > 100 µM
SK-MEL-28 melanoma
  GI50: > 100 µM
  TGI: > 100 µM
HT29 colon
  GI50: 42.2 µM
  TGI: > 100 µM
SW-620 colon
  GI50: > 100 µM
  TGI: > 100 µM
MOLT-4 leukemia
  GI50: > 100 µM
  TGI: > 100 µM
DU-145 prostate
  GI50: 82.2 µM
  TGI: > 100 µM
ACHN renal
  GI50: 9.46 µM
  TGI: > 100 µM
OVCAR-5 ovarian
  GI50: > 100 µM
  TGI: > 100 µM
HOP-92 NSCLC
  GI50: 5.73 µM
  TGI: 74.6 µM
TK-10 renal
  GI50: 25.8 µM
  TGI: > 100 µM
SK-MEL-2 melanoma
  GI50: 3.04 µM
  TGI: 45.8 µM
A498 renal
  GI50: > 100 µM
  TGI: > 100 µM
HS 578T breast
  GI50: 4.51 µM
  TGI: > 100 µM
786-0 renal
  GI50: 54.7 µM
  TGI: > 100 µM
KM12 colon
  GI50: 4.66 µM
  TGI: > 100 µM
U251 CNS
  GI50: 33 µM
  TGI: > 100 µM
HCC-2998 colon
  GI50: 80.4 µM
  TGI: > 100 µM
NCI/ADR-RES ovarian
  GI50: 4.07 µM
  TGI: > 100 µM
UO-31 renal
  GI50: 4.85 µM
  TGI: > 100 µM
NCI-H460 lung
  GI50: 4.37 µM
  TGI: > 100 µM
OVCAR-3 ovarian
  GI50: 8.4 µM
  TGI: > 100 µM
MDA-MB-231 breast
  GI50: 85.1 µM
  TGI: > 100 µM
SF-539 CNS
  GI50: > 100 µM
  TGI: > 100 µM
MDA-N
  GI50: 74.9 µM
  TGI: > 100 µM
NCI-H522 lung
  GI50: 6.53 µM
  TGI: > 100 µM
LOX IMVI melanoma
  GI50: 18.2 µM
  TGI: > 100 µM
SNB-75 CNS
  GI50: 46 µM
  TGI: > 100 µM
CCRF-CEM leukemia
  GI50: 3.51 µM
  TGI: > 100 µM
OVCAR-4 ovarian
  GI50: 9.54 µM
  TGI: > 100 µM
K-562 leukemia
  GI50: 3.08 µM
  TGI: > 100 µM
UACC-62 melanoma
  GI50: 5.73 µM
  TGI: > 100 µM
SF-295 CNS
  GI50: 10.5 µM
  TGI: > 100 µM
CAKI-1 renal
  GI50: 6.41 µM
  TGI: > 100 µM
HCT-15 colon
  GI50: 6.66 µM
  TGI: > 100 µM
NCI-H322M lung
  GI50: > 100 µM
  TGI: > 100 µM
